The series in a line: Endotoxin levels of different compositions (OD at 410 nm).

Drawing on patent US20250134946A1, “SELF-ASSEMBLING AMPHIPHILIC PEPTIDE HYDROGELS FOR TREATMENT OF NERVE INJURY” (GEL4MED, INC., priority 2021, published 2025), this text covers Endotoxin level for one substance.

Buffer solution: the Endotoxin level is −0.03694 EU/mL.
